The text below walks through data of patent US7034056B2, “Aryl and biaryl compounds having MCH modulatory activity” (Pharmacopeia Drug Discovery, inc., priority 2001, dated 2006).

Sequences of proteins named here, by UniProt entry; tags and fusion partners are left off.
UniProt Q99705, whole entry: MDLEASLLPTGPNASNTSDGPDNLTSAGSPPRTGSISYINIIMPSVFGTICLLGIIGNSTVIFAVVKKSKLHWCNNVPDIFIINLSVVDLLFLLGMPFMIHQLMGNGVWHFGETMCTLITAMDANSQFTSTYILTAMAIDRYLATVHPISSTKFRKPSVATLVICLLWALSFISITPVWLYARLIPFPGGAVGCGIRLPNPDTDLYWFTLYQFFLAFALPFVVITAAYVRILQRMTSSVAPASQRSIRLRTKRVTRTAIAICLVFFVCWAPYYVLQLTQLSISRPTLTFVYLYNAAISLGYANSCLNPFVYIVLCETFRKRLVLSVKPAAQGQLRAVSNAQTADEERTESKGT

The assay deals with hMCHR (MCH receptor) (Homo sapiens, UniProt Q99705). Nature of the assay: MCH Assay PCOP Protocol ([125I]-MCH SPA binding to hMCHR-CHO membranes).
Where [1] appears, read: read-out: Activity (Ki range), [125I]-MCH binding to hMCHR-CHO membranes, class symbols for ranges of Ki.
Where [2] appears, read: read-out: Activity (ranges of Ki values), [125I]-MCH 0.5 nM, hMCHR-CHO membranes.

One may read the Ki as the equilibrium dissociation constant of an inhibitor or competing ligand from its target.

Read-outs that look alike come from different tables or passages of the source.

On to `O=C(NCC(CCNCCc1c[nH]c2ccccc12)c1ccc(Cl)c(Cl)c1)Nc1cccc(C(F)(F)F)c1` (centres unmarked), for which the Ki under setting [1] was 51 to 500 nM.
Still for that read-out and setting: to `Cc1noc(C)c1NCCC(CNC(=O)Nc1cc(Cl)cc(Cl)c1)c1ccc(Cl)cc1` (centres unmarked) belongs 501 to 2500 nM; to `O=C(NCC(CCNC1CCCC1)c1ccc(-c2cccc([N+](=O)[O-])c2)cc1)Nc1cc(Cl)cc(Cl)c1` (centres unmarked), 0.4 to 50 nM.
Take `CCN(CCC(CNC(=O)Nc1cc(Cl)cc(Cl)c1)c1ccc(-c2cccc(C#N)c2)cc1)S(C)(=O)=O` (centres unmarked): under setting [2], the inhibitory constant (Ki) fell in the range of 51 to 500 nM.
On the same count and under the same terms, to `Cc1ccc(C(CCN2CCC(NS(C)(=O)=O)CC2)CNC(=O)Nc2cc(Cl)cc(Cl)c2)cc1` (centres unmarked) belongs 51 to 500 nM.
